TDP1 block – inhibitors of human tyrosyl-DNA phosphodiesterase TDP1 | Q9NUW8 | recombinant TDP1, AlphaScreen DNA substrate cleavage | Potency, µM (highest dose often 130 µM), hits mostly inhibitors | 350,000 tested, 0.28% active | AID 485290; further: nearly all actives have a fitted effect of over 40% in size
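E. coli-derived human Tdp1, 1 nM final. Cpd preinc 15 min RT; substrate 15 nM final, 5 min RT; AS bead mix 10 ug/ml final, 10 min RT. Signal loss = tyrosine-FITC cleavage. No-enzyme wells = max signal.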
uPA generation – blocks generation of uPA at the cell surface; cell surface uPA generation assay, qHTS; 330,000 tested, 0.31% active; Potency, µM (doses to about 38.3 µM), usual class: inhibitors; AID 540303; active means well fitted inhibition curve with a large enough effect; inconclusive means small, poorly fitted or top-dose-only effect; inactive means no such curve, though single readings can be large or run the other way; tested in mouse RAW 264.7 cells; further: nearly all actives have a fitted effect of over 55% in size
miR-21 reporter – raises the signal of a miR-21 reporter | Potency, µM (doses to about 38.3 µM) | HeLa miR-21 FLuc reporter, luciferase, 48 h | AID 2288 | 340,000 tested, under 10 active; active = well fitted rising curve with a large enough effect; inconclusive = small, poorly fitted or top-dose-only effect; inactive = no such curve, though single readings can be large or run the other way;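 also: miR-21 action dims this reporter so a rising signal means less miR-21 action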
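HeLa cells endogenously expressing miR-21, stably carrying CMV-driven firefly luciferase with a downstream miR-21 binding site, 2000 cells/well. Titrations up to approximately 40 uM, 48 hours; luciferase luminescence read.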
TDP1 cell noCPT – qHTS for Inhibitors of human tyrosyl-DNA phosphodiesterase 1 (TDP1): qHTS in cells in absence of CPT; DT40 Tdp1-/- hTDP1 cells, no CPT, ATP luminescence, 48 h; Potency, µM (highest dose often 46.2 µM), hits mostly inhibitors; 420,000 tested, 15% active; further: nearly all actives have a fitted effect of over 55% in size
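Stably hTDP1-transfected Tdp1-null chicken DT40 cells were treated with library compounds minus camptothecin and grown for at least 48 hr at 37 °C, after which cellular ATP was quantified by luminescence.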
TDP1 cell CPT – DT40-hTDP1 cell growth loss with CPT; chicken DT40 Tdp1-/-;hTDP1 cells + 20 nM CPT, ATP luminescence, 48 h; Potency, µM (top dose mostly 46.2 µM), usual class: inhibitors; 420,000 tested, 12% active; AID 686979; further: nearly all actives have a fitted effect of over 55% in size
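Chicken DT40 Tdp1-/- cells complemented with human TDP1, 400 cells/well, exposed to compounds plus 20 nM camptothecin for at least 48 h at 37 C; viability read as ATP content by CellTiter-Glo luminescence.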
Each line names hits and unclear results; the compound was inactive in the other large screens. An excerpt weighted towards active compounds, which were near 16% of everything screened. Unless noted, the call rests on the fitted dose curve; in most records, active means well fitted curve in the direction sought with a large enough effect; inconclusive means small, poorly fitted or top-dose-only effect, or another doubt; inactive means no such curve, though single readings can be large; an effect the other way counts as inactive or inconclusive.

Cc1ccc2[nH]c3c(c2c1)CN(C(=O)CC1(c2ccccc2)CC(=O)N(Cc2cccnc2)C1=O)CC3 (centres undefined)	TDP1 cell noCPT 16.4µM, TDP1 cell CPT inconclusive (no result: TDP1 block, uPA generation, miR-21 reporter)
Cc1ccc2[nH]c3c(c2c1)CN(C(=O)CN1CCCc2ccccc21)CC3	TDP1 cell noCPT inconclusive, TDP1 cell CPT 23.1µM
Cc1ccc2[nH]c3c(c2c1)CN(C(=O)CN1CCCCC1)CC3	TDP1 cell noCPT inconclusive, TDP1 cell CPT inconclusive
CCN(C(=O)CSc1nnc(-c2cc3occc3n2C)n1-c1ccccc1C)c1ccccc1	none (no result: uPA generation)
COc1ccccc1C(=O)O/N=C1/CCCc2c1ccc(OC)c2[N+](=O)[O-]	TDP1 cell noCPT inconclusive
COc1cc(C(=O)O/N=C2\CCCc3c2ccc(OC)c3[N+](=O)[O-])cc(OC)c1OC	TDP1 cell noCPT 3.26µM, TDP1 cell CPT 10.3µM
Cc1ccccc1OCc1nnc(SCc2cc(=O)c3ccc(C)c(C)c3[nH]2)n1C	TDP1 cell noCPT 16.4µM, TDP1 cell CPT inconclusive (no result: uPA generation)
Cc1ccccc1OCc1nnc(SCc2nc3ccccc3c(=O)[nH]2)n1C	none
Cc1cc(C)c2c(=O)cc(CSc3nnc(COc4ccccc4C)n3C)[nH]c2c1	TDP1 cell noCPT inconclusive, TDP1 cell CPT inconclusive (no result: uPA generation)
Cc1ccc2[nH]c(CSc3nnc(COc4ccccc4C)n3C)cc(=O)c2c1	TDP1 cell noCPT 14.6µM, TDP1 cell CPT 18.4µM (no result: uPA generation)
Cc1ccc2c(=O)cc(CSc3nnc(-c4ccccc4)n3C)[nH]c2c1C	none (no result: uPA generation)
Cc1ccccc1OCc1nnc(SCc2cc(=O)c3ccccc3[nH]2)n1C	TDP1 cell noCPT 14.6µM, TDP1 cell CPT 13µM (no result: uPA generation)
Cc1cccc(-c2nnc(SCc3cc(=O)c4cccc(Cl)c4[nH]3)n2C)c1	TDP1 cell noCPT 16.4µM, TDP1 cell CPT 23.1µM (no result: uPA generation)
O=C(N/N=C/c1ccc(N2CCOCC2)s1)c1ccc(NS(=O)(=O)c2cccs2)cc1	TDP1 cell noCPT inconclusive
Cc1ccc2c(=O)cc(CSc3ccccc3)[nH]c2c1C	TDP1 cell noCPT inconclusive, TDP1 cell CPT inconclusive (no result: uPA generation)
O=c1cc(CSc2ccccc2)[nH]c2ccccc12	TDP1 cell noCPT inconclusive, TDP1 cell CPT 25.9µM (no result: TDP1 block)
Cc1ccccc1OCc1nnc(SCc2cc(=O)c3cc(F)ccc3[nH]2)n1C	TDP1 cell noCPT 11.6µM, TDP1 cell CPT 13µM (no result: uPA generation)
COc1cccc(-c2cc(NCc3cccnc3)ncn2)c1	none (no result: TDP1 block, uPA generation, miR-21 reporter)
CCOC(=O)C1=C(Cn2ccc(C(F)(F)F)n2)NC(=O)NC1c1ccc2c(c1)OCO2 (centres undefined)	TDP1 cell noCPT inconclusive, TDP1 cell CPT inconclusive
O=C1CCN(CCc2ccccc2)CCN1[C@H](CSc1ccccc1)c1ccccc1	TDP1 cell noCPT 11.2µM, TDP1 cell CPT 11.2µM (no result: TDP1 block)
Cc1ccc(SC[C@H](c2ccccc2)N2CCN(CCc3ccccc3)CCC2=O)cc1	TDP1 cell noCPT 20.6µM, TDP1 cell CPT inconclusive
CC(C)C[C@@H](CSc1ccccc1)N1CCN(CCc2ccccc2)CCC1=O	uPA generation inconclusive, TDP1 cell noCPT 20.6µM, TDP1 cell CPT inconclusive (no result: TDP1 block)
CC1=C(c2ccc(C)c(C)c2)S(=O)(=O)N(Cc2ccc(C(=O)NCc3ccccc3F)cc2)C1=O	TDP1 cell noCPT inconclusive, TDP1 cell CPT inconclusive (no result: uPA generation)
Clc1ccc(CCNc2ncnc3nc[nH]c23)cc1	TDP1 cell noCPT 7.31µM, TDP1 cell CPT 11.6µM
c1ccc(CCCNc2ncnc3nc[nH]c23)cc1	TDP1 cell noCPT 20.6µM, TDP1 cell CPT inconclusive
c1ccc2c(CCNc3ncnc4nc[nH]c34)cccc2c1	TDP1 cell noCPT 18.4µM, TDP1 cell CPT 23.1µM
CCCCc1ccc(Nc2ncnc3nc[nH]c23)cc1	uPA generation inconclusive
C1=C(CCNc2ncnc3nc[nH]c23)CCCC1	uPA generation inconclusive, TDP1 cell noCPT 14.6µM, TDP1 cell CPT 13µM
CCCNc1ncnc2nc[nH]c12	TDP1 cell CPT inconclusive
COC(=O)C1=C(C)NC(C)=C(C(=O)OC)C1C(=O)OC1CCCCC1=O (centres undefined)	none
NC(=O)NN=C1CCn2cccc21	none (no result: TDP1 block, miR-21 reporter)
Cc1cc2nc(N3CCCN(Cc4cccn4-c4ncccn4)CC3)nc(C)c2cc1C	TDP1 cell noCPT 16.4µM (no result: TDP1 block, uPA generation, miR-21 reporter)
COc1ccc(O)c(CN2CCCN(c3nc(C)c4cc(C)c(C)cc4n3)CC2)c1	none (no result: TDP1 block, uPA generation, miR-21 reporter)
COc1ccc(S(=O)(=O)N2CCOC2CNC(=O)C(=O)NCCc2ccccc2OC)cc1C (centres undefined)	TDP1 cell noCPT inconclusive, TDP1 cell CPT inconclusive (no result: TDP1 block)
COc1ccc(S(=O)(=O)N2CCOC2CNC(=O)C(=O)NCCc2ccccc2OC)cc1 (centres undefined)	none (no result: TDP1 block)
COc1ccc(S(=O)(=O)N2CCOC2CNC(=O)C(=O)NCCc2c[nH]c3ccccc23)cc1C (centres undefined)	TDP1 cell noCPT 23.1µM, TDP1 cell CPT 23.1µM
COc1ccc(S(=O)(=O)N2CCOC2CNC(=O)C(=O)NCCc2c[nH]c3ccccc23)cc1 (centres undefined)	TDP1 cell noCPT inconclusive, TDP1 cell CPT 16.4µM
c1ccc2c(c1)nc(N1CCOCC1)c1ccccc12	none
CCN(CC)c1ccc(Nc2nc(N3CCOCC3)c3ccccc3n2)cc1	TDP1 cell noCPT 3.26µM, TDP1 cell CPT 4.61µM (no result: uPA generation)
COc1ccc(Nc2nc(N3CCCC3)c3ccccc3n2)cc1	TDP1 cell noCPT 3.26µM, TDP1 cell CPT 2.59µM
Cc1cccc2nc(Cn3c(=O)n(CCC(=O)NCc4ccco4)c(=O)c4ccccc43)cc(=O)n12	TDP1 cell noCPT inconclusive (no result: TDP1 block, miR-21 reporter)
CC1=C(C(N)=O)C(c2ccccc2)n2nc(-c3cccs3)nc2N1 (centres undefined)	none
N#CC1=C(N)NC(SCc2ccc(Cl)cc2)=C(C#N)C12CCCCC2	TDP1 cell noCPT inconclusive, TDP1 cell CPT inconclusive
N#CC1=C(N)NC(SCC(=O)Nc2ccc(Br)cc2)=C(C#N)C12CCCCC2	TDP1 cell noCPT inconclusive, TDP1 cell CPT 25.9µM
CSC1=C(C#N)C2(CCCC2)C(C#N)=C(N)N1	none (no result: uPA generation, TDP1 cell noCPT, TDP1 cell CPT)
CC1(C)CC(=O)C2=C(C1)NC(SCC(=O)Nc1ccccc1)=C(C#N)C21CCCCC1	TDP1 cell noCPT inconclusive, TDP1 cell CPT inconclusive
N#CC1=C(N)NC(SCc2ccc(Br)cc2)=C(C#N)C12CCCCC2	TDP1 cell noCPT inconclusive, TDP1 cell CPT inconclusive
CCSC1=C(C#N)C2(CCCC2)C(C#N)=C(N)N1	TDP1 cell noCPT 16.4µM, TDP1 cell CPT 7.31µM
N#CC1=C(N)NC(SCc2ccccc2)=C(C#N)C12CCCC2	TDP1 cell noCPT 18.4µM, TDP1 cell CPT inconclusive
CC1=C(C(=O)Nc2ccccc2)C2(CCCCC2)C(C#N)=C(SCC(N)=O)N1	TDP1 cell noCPT 16.4µM, TDP1 cell CPT inconclusive
CCOc1cc(O)c(-c2[nH]ncc2-c2nc(C)cs2)cc1CC	TDP1 cell noCPT 20.6µM, TDP1 cell CPT 23.1µM (no result: TDP1 block)
CCc1cc(-c2[nH]ncc2-c2nc3ccccc3n2C)c(O)cc1O	TDP1 cell noCPT inconclusive
c1ccc(C(=C2CCCO2)c2ccccc2)cc1	none (no result: TDP1 block, miR-21 reporter)

Source: PubChem BioAssay (National Center for Advancing Translational Sciences (NCATS))
